Compound activity deposited in PubChem BioAssay by Broad Institute.
In the library only some 1.8% were active in any assay of this set; here they are far more common.
Cneo AK release = Cryptococcus neoformans lysis via adenylate kinase release; C. neoformans lysis, adenylate kinase release luminescence, 4 h; normalised: neutral wells 0, clomiphene wells 100; lysis activity, % at 15 µM; 360,000 tested, 0.2% active;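 active means mean lysis activity across replicates of at least 80%, whatever share of replicates individually reach that level; inactive means mean lysis activity below 80%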
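Test system: log-phase Cryptococcus neoformans yeast cells; Quantity: yeast cell density of 5 × 10^6 cells/mL; Buffer or medium: YPD; Doses: single compound concentration per well; Timing: 4 h at 37 °C static, read 1 h later; Measured by: AK luminescence; Read-out basis: lysis from increased AK signal; Control set: Clomiphene as positive control.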
Yeast UUG start-1 = modulators of yeast start codon fidelity, primary screen, whole organism, S. cerevisiae, single point, plate reader. S. cerevisiae UUG-firefly luciferase reporter, luminescence/redox ratio. activity score, % at 18.7 µM. hit rate 0.13% among 350,000;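 active = replicate mean at a twofold rise or more, about +100% in these data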;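 also: firefly luciferase made from a UUG start codon reports start codon fidelity; reporter light over untreated wells divided by growth signal over untreated wells; some hits fall short of that in this replicate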
E-sel inducer = E-selectin induction on HUVECs. P16581. HUVEC E-selectin immunofluorescence imaging; normalized: neutral wells 0, TNF-alpha wells 100. activation, % at 7.58 µM. 260,000 tested, 0.37% active. AID 686992;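 active means mean E-selectin-positive cell signal at least 10% of the positive control, reached in at least 60% of replicates, without over 20% cell loss; inconclusive means no rule given, readout overlaps actives, possibly toxicity-flagged; inactive means the rest, including those meeting only one limit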
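System: HUVEC / Compound: single concentration / Signal: immunofluorescence imaging / Read-out: percent E-selectin-positive cells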
DENV2 CPE rescue = inhibitors of DENV2 cytopathic effect. DENV2-infected cells, cytopathic effect rescue, plate reader. CPE inhibition, % at 9.99 µM. 350,000 tested, 1.7% active; in the data active means CPE inhibition above about 20%, passing the limit was not always enough; inconclusive means no clear call, values can overlap the other calls; tested in BHK-21 cells;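 further: 0% = median of neutral control wells and 100% = median of positive control wells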
Yeast UUG start-2 = alters UUG start codon use in yeast | shares compounds with Yeast UUG start-1 | S. cerevisiae UUG-start firefly luciferase, luminescence, 4 h; 100% means double the DMSO signal | activation, % at 38 µM | 540 tested, under 10 active;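 active means signal increase whose fitted curve reaches an absolute level of 40 at a concentration under 10 µM; inactive means activity opposite to the expected increase, or the rest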
Numbers without * were called inactive; i = inactive; ? = inconclusive; / = no result given.

Short keys – A = Cneo AK release; B = Yeast UUG start-1; C = E-sel inducer; D = DENV2 CPE rescue; E = Yeast UUG start-2
Compound: O=C(Nc1ccccc1)NC1(c2cn(CC(=O)N3CCN(c4ccccc4)CC3)nn2)CCCCC1
  A = -8.3; B = 124.0*; C = /; D = 16.4; E = i

Compound: COc1ccc(S(=O)(=O)N2CCCCN3[C@H](CO)[C@@H](c4ccc(C#CC5CC5)cc4)[C@@H]3C2)cc1
  A = -1.1; B = 19.3; C = 0.0; D = 8.1; E = /

Compound: CC(C)n1cc(C(=O)c2ccccc2O)cc(C#N)c1=O
  A = -4.1; B = 229.8*; C = /; D = 6.6; E = 8.0

Compound: Cc1ccc(-c2cnc3c(c2)C(=O)N([C@@H](C)CO)C[C@@H](C)[C@H](CN(C)C(=O)CN(C)C)O3)cc1
  A = 1.2; B = 162.7*; C = -0.1; D = ?; E = i

Compound: C[C@@H]1CN([C@@H](C)CO)C(=O)c2cc(C#CCC3CCCC3)cnc2O[C@@H]1CN(C)C(=O)CN(C)C
  A = 4.5; B = 124.5*; C = 0.8; D = -3.0; E = i

Compound: O=C(C1=C[C@@H](C2CC2)C[C@@H](OCc2ccc(CO)cc2)O1)N1CCCC1
  A = -10.8; B = /; C = /; D = 0.1; E = /

Compound: CCN(CC)CC#CC(OC)(c1ccccc1)c1ccccc1
  A = /; B = /; C = /; D = 3.9; E = -0.2

Compound: C[C@H](CO)N1C[C@H](C)[C@H](CN(C)C(=O)c2cccc(F)c2)Oc2cc(-c3cncnc3)ccc2S1(=O)=O
  A = -0.1; B = -8.6; C = 1.3; D = 4.9; E = /

Compound: COc1cc(C(C)=O)ccc1OCc1cn(CC(=O)c2ccc(O)cc2)nn1
  A = 10.7; B = 156.8*; C = -0.1; D = 6.8; E = -1.4

Compound: CC(=O)Nc1ccc(OCc2cn(CC(=O)c3ccc(O)cc3)nn2)cc1
  A = 0.3; B = 96.5*; C = 1.4; D = 7.3; E = -6.7

Compound: O=C(Cn1cc(COc2ccccc2C(F)(F)F)nn1)c1ccc(O)cc1
  A = 13.0; B = 140.7*; C = 0.0; D = ?; E = 4.4

Compound: CCCNC(=O)[C@H]1[C@H](CO)[C@H]2Cn3c(ccc(-c4ccccc4F)c3=O)[C@H]2N1C(=O)C1CCC1
  A = /; B = /; C = 0.0; D = 17.3; E = /

Compound: COc1ccc(NC(=O)N(C)C[C@@H]2Oc3ccc(NC(=O)Cc4cn(C)c5ccccc45)cc3CC(=O)N([C@@H](C)CO)C[C@@H]2C)cc1
  A = 1.9; B = -3.8; C = -1.3; D = -4.7; E = /

Compound: CCOC(=O)C1CCN(Cc2cnc(Oc3ccc(C(C)(C)C)cc3)s2)CC1
  A = -3.8; B = 126.7*; C = -2.4; D = /; E = 4.0

Compound: CCOC(=O)C1CCN(Cc2cnc(NC(=O)OC)s2)CC1
  A = -0.8; B = -10.7; C = /; D = /; E = /

Compound: Cc1cc(NC(=O)COC(=O)COc2ccc(C(=O)c3ccccc3)cc2)no1
  A = -1.6; B = 183.6*; C = /; D = /; E = 6.0

Compound: Cc1ccc(S(=O)(=O)Nc2ccc3c(c2)C(=O)N([C@H](C)CO)C[C@H](C)[C@@H](CN(C)S(=O)(=O)c2ccc(C)cc2)O3)cc1
  A = -3.4; B = 3.7; C = 0.4; D = -0.6; E = /

Compound: C[C@H]1CN([C@@H](C)CO)C(=O)c2cccc(NS(=O)(=O)c3cccs3)c2O[C@H]1CN(C)S(=O)(=O)c1ccc(F)cc1
  A = -5.9; B = 3.3; C = 0.1; D = 11.1; E = /

Compound: Cc1ccccc1NC(=O)c1cccc(S(=O)(=O)N2CCCCC2)c1
  A = -1.6; B = 16.2; C = /; D = 5.9; E = /

Compound: CNC(=O)c1ccccc1NC(=O)c1cccc(S(=O)(=O)N2CCCCC2)c1
  A = -4.0; B = 188.3*; C = 0.8; D = 5.2; E = -3.0

One compound at a time, from the list above. Order of values: Cneo AK release	Yeast UUG start-1	E-sel inducer	DENV2 CPE rescue	Yeast UUG start-2
CCOC(=O)C1CCN(Cc2cnc(NC(=O)OC)s2)CC1 is entered as -0.8	-10.7	/	/	/
CCCNC(=O)[C@H]1[C@H](CO)[C@H]2Cn3c(ccc(-c4ccccc4F)c3=O)[C@H]2N1C(=O)C1CCC1 is entered as /	/	0.0	17.3	/
CNC(=O)c1ccccc1NC(=O)c1cccc(S(=O)(=O)N2CCCCC2)c1 is entered as -4.0	188.3*	0.8	5.2	-3.0
COc1ccc(NC(=O)N(C)C[C@@H]2Oc3ccc(NC(=O)Cc4cn(C)c5ccccc45)cc3CC(=O)N([C@@H](C)CO)C[C@@H]2C)cc1 is entered as 1.9	-3.8	-1.3	-4.7	/

Continued.
Short keys – A = Cneo AK release; B = Yeast UUG start-1; C = E-sel inducer; D = DENV2 CPE rescue; E = Yeast UUG start-2
Compound: COC(=O)C[C@@H]1C[C@@H]2c3cc(NC(=O)Nc4ccccc4F)ccc3O[C@@H]2[C@@H](CO)O1
  A = 15.0; B = 71.5*; C = 0.5; D = -6.1; E = i

Compound: COCCNC(=O)C[C@H]1C[C@H]2c3cc(NC(=O)c4ccc5c(c4)OCO5)ccc3O[C@H]2[C@@H](CO)O1
  A = -0.3; B = 136.8*; C = 0.6; D = 13.0; E = i

Compound: COCCNC(=O)C[C@H]1C[C@@H]2c3cc(NC(=O)c4ccc5c(c4)OCO5)ccc3O[C@@H]2[C@@H](CO)O1
  A = 2.1; B = 6.7; C = 0.6; D = 0.9; E = /

Compound: O=C(O)C[C@@H]1C[C@H]2c3cc(NC(=O)Nc4ccccc4F)ccc3O[C@H]2[C@H](CO)O1
  A = -1.1; B = 5.0; C = 1.7; D = -0.1; E = /

Compound: CS(=O)(=O)Nc1cccc(NC(=O)c2ccc(-n3ccnc3)c3ccoc23)c1
  A = -3.6; B = 115.1*; C = 0.6; D = 6.4; E = -8.2

Compound: Cn1nccc1-c1ccc(C(=O)Nc2cccc(NS(C)(=O)=O)c2)c2occc12
  A = -6.5; B = -15.0; C = 0.1; D = -8.8; E = /

Compound: O=C(NCC1CC1)c1ccc(-n2ccnc2)c2ccoc12
  A = 2.8; B = 162.9*; C = -0.1; D = 1.6; E = -7.2

Compound: CC(=O)N(C)C[C@@H]1Oc2cc(C3=CCCCC3)ccc2S(=O)(=O)N([C@@H](C)CO)C[C@H]1C
  A = /; B = /; C = -0.3; D = /; E = /

Compound: COc1ccc(Nc2cc(C)nc(NCc3ccccc3)n2)cc1
  A = -8.0; B = 623.9*; C = 0.8; D = -21.8; E = -6.5

Compound: Cc1cc(O)ccc1C1(c2ccc(O)cc2C)OC(=O)c2ccccc21
  A = -2.1; B = 444.1*; C = /; D = /; E = 6.2

Compound: O=C(Nc1ccc(F)cc1)N[C@H]1CC[C@@H](CCNC(=O)c2ccccc2F)O[C@@H]1CO
  A = /; B = /; C = -0.3; D = -0.6; E = /

Compound: Cc1c(C(=O)CN2CCCC(C)(C)C2)c2ccccc2n1C
  A = 2.5; B = active; C = /; D = -3.4; E = -0.7

Compound: CNC[C@H]1Oc2ncc(-c3cncnc3)cc2C(=O)N([C@@H](C)CO)C[C@H]1C
  A = /; B = /; C = -0.2; D = -13.7; E = /

Compound: COCC#Cc1ccc2c(c1)O[C@@H](CN(C)Cc1cccnc1)[C@@H](C)CN([C@@H](C)CO)S2(=O)=O
  A = -3.5; B = 154.0*; C = 6.4; D = -9.6; E = i

Compound: COCC#Cc1ccc2c(c1)O[C@H](CN(C)Cc1cccnc1)[C@@H](C)CN([C@@H](C)CO)S2(=O)=O
  A = -2.3; B = -10.4; C = 0.2; D = 0.7; E = /

Compound: C/C=C/c1ccc2c(c1)O[C@@H](CN(C)Cc1cccc(F)c1)[C@@H](C)CN([C@H](C)CO)S2(=O)=O
  A = -9.2; B = 105.5*; C = -0.5; D = 12.1; E = i

Compound: CC(C)C#Cc1ccc2c(c1)O[C@@H](CN(C)Cc1ccccn1)[C@@H](C)CN([C@H](C)CO)S2(=O)=O
  A = -2.2; B = 60.6*; C = 0.7; D = -8.5; E = i

Compound: C[C@@H](O)C#Cc1ccc2c(c1)O[C@@H](CN(C)Cc1cncnc1)[C@@H](C)CN([C@@H](C)CO)S2(=O)=O
  A = -3.8; B = 103.2*; C = 0.5; D = 3.5; E = i

Compound: C[C@H](O)C#Cc1ccc2c(c1)O[C@H](CN(C)Cc1cncnc1)[C@@H](C)CN([C@@H](C)CO)S2(=O)=O
  A = -0.4; B = -0.1; C = 0.2; D = 17.9; E = /

Compound: CO[C@H]1CN(C)C(=O)c2ccc(NC(=O)C3CCCC3)cc2OC[C@H](C)N(CCC(F)(F)F)C[C@@H]1C
  A = /; B = /; C = 0.1; D = -4.8; E = /

Compound: C[C@H]1CN([C@@H](C)CO)C(=O)c2cccc(NC(=O)c3nc4ccccc4s3)c2O[C@@H]1CN(C)C(=O)Nc1ccccc1
  A = 4.6; B = 7.9; C = 0.1; D = 3.7; E = /

Compound: CC(=O)N(C)C[C@@H]1Oc2cc(C#C[C@H](C)O)ccc2S(=O)(=O)N([C@H](C)CO)C[C@@H]1C
  A = 3.5; B = -5.2; C = -0.4; D = -4.7; E = /

Compound: CC(=O)N(C)C[C@@H]1Oc2cc(C#C[C@@H](C)O)ccc2S(=O)(=O)N([C@@H](C)CO)C[C@@H]1C
  A = 0.4; B = 121.2*; C = 0.2; D = 4.8; E = i

Compound: C/C=C/c1ccc2c(c1)O[C@@H](CN(C)Cc1cncnc1)[C@@H](C)CN([C@H](C)CO)S2(=O)=O
  A = -1.8; B = 109.6*; C = -1.0; D = 14.5; E = i

Compound: CCC(=O)N(C)C[C@@H]1Oc2cc(C#Cc3ccccc3)ccc2S(=O)(=O)N([C@@H](C)CO)C[C@@H]1C
  A = -1.9; B = 183.4*; C = 0.8; D = -4.9; E = i
